Tested on: DENV-2
Assay: Virus yield inhibition assay, DENV-2 in Huh7 cells, titers by plaque assay
Conditions: Huh7, DENV-2 MOI 0.1, 48 h; concentration per compound as in Table 1

SMILES: C[C@H](C[C@H](N)C(=O)O)C(=O)O [Methylglutamic acid, (2S,4R)-4-Methylglutamic acid]
- Maximum effect on DENV replication (in words): inactive
